# Assay: Solubility in water
# Type: physicochemical
# Method: Graugrüner Feststoff, Ausbeute 1.25 g (78.5 %), Schmelzpunkt >350 °C. Löslichkeit in Wasser > 0.1 mol/L.
# SO3-Ph-BTBP wurde aus 6,6'-Bis(5,6-diphenyl-1,2,4-triazin-3-yl)-2,2'-bipyridin analog zu SO3-Ph-BTP hergestellt. Löslichkeit in Wasser > 0.1 mol/L.
substance,measurement,value
"2,6-Bis(5,6-di(sulfophenyl)-1,2,4-triazin-3-yl)pyridine [SO3-Ph-BTP]",Löslichkeit in Wasser,> 0.1 mol/L

# From patent EP2377861B1, “Water-soluble bis-triazinyl-pyridines, bipyridines and terpyridines, synthesis and use of same” (Karlsruher Institut für Technologie, priority 2010, dated 2011)
